Experimental data: article PMC3189208 (PLoS ONE, 2011)
pKd: −log10 of the molar value.

Tests used:
MOR = conditions: cited from earlier work
[1] = test system: MOR kinase pathways in HEK-MOR cells; format: cell-based, human

Question: With (Leu^5)-enkephalin as the substance, how does the pKd (MOR) read?
Answer: 8.13

Question: What about the “maximal DMR response after SB202190 pretreatment vs untreated” value [1] of the same substance?
Answer: significantly reduced
